B1: Ribosomal protein S6 kinase beta-1 (Homo sapiens), P23443-2 (parent)
chain: MAGVFDIDLDQPEDAGSEDELEEGGQLNESMDHGGVGPYELGMEHCEKFEISETSVNRGPEKIRPECFELLRVLGKGGYGKVFQVRKVTGANTGKIFAMKVLKKAMIVRNAKDTAHTKAERNILEEVKHPFIVDLIYAFQTGGKLYLILEYLSGGELFMQLEREGIFMEDTACFYLAEISMALGHLHQKGIIYRDLKPENIMLNHQGHVKLTDFGLCKESIHDGTVTHTFCGTIEYMAPEILMRSGHNRAVDWWSLGALMYDMLTGAPPFTGENRKKTIDKILKCKLNLPPYLTQEARDLLKKLLKRNAASRLGAGPGDAGEVQAHPFFRHINWEELLARKVEPPFKPLLQSEEDVSQFDSKFTRQTPVDSPDDSTLSESANQVFLGFTYVAPSVLESVKEKFSFEPKIRSPRRFIGSPRTPVSPVKFSPGDFWGRGASASTANPQTPVEYPMETSGIEQMDVTMSGEASAPLPIRQPNSGPYKKQAFPMISKRPEHLRMNL

Variants of B1 are the subject of the assay. To be noted: with gli1_human GLI1, P08151.
Regarding T389A, the “effect of a mutation on the interaction” value is “disrupting interaction”.

For T389E, the “effect of a mutation on the interaction” value is listed as “increasing interaction”.

The values are drawn from IntAct's records for PubMed 22439934.
